Assay: xn = mol fraction of the nth substance listed
Conditions: Liquid, Vibrating tube method

CCCCOCCCC [dibutyl ether] + CCCCCCC
mass density [kg/m3]
Conditions | x1 = 0.325 | x1 = 0.5 | x1 = 0.675 | x1 = 0.85
333.15 K, 140000 kPa | 785.2 | 799.1 | 809.7 | 823.5
353.15 K, 100 kPa | 675.6 | 689.8 | 700.8 | 715
353.15 K, 1000 kPa | 676.9 | 691 | 702 | 716.2
353.15 K, 5000 kPa | 682.3 | 696.3 | 707.2 | 721.3
353.15 K, 10000 kPa | 688.5 | 702.4 | 713.2 | 727.2
353.15 K, 15000 kPa | 694.1 | 708 | 718.8 | 732.7
353.15 K, 20000 kPa | 699.4 | 713.3 | 723.9 | 737.8
353.15 K, 25000 kPa | 704.4 | 718.1 | 728.8 | 742.6
353.15 K, 30000 kPa | 709 | 722.7 | 733.3 | 747.1
353.15 K, 35000 kPa | 713.4 | 727 | 737.7 | 751.4
353.15 K, 40000 kPa | 717.4 | 731.1 | 741.7 | 755.4
353.15 K, 45000 kPa | 721.4 | 735 | 745.6 | 759.3
353.15 K, 50000 kPa | 725.3 | 738.9 | 749.5 | 763
353.15 K, 55000 kPa | 728.8 | 742.4 | 753 | 766.6
353.15 K, 60000 kPa | 732.3 | 745.9 | 756.5 | 770.1
353.15 K, 65000 kPa | 735.7 | 749.3 | 759.8 | 773.4
353.15 K, 70000 kPa | 738.9 | 752.5 | 763.1 | 776.7
353.15 K, 80000 kPa | 744.9 | 758.6 | 769.1 | 782.7
353.15 K, 90000 kPa | 750.8 | 764.4 | 774.9 | 788.5
353.15 K, 100000 kPa | 756.1 | 769.8 | 780.4 | 794
353.15 K, 110000 kPa | 761.4 | 775 | 785.5 | 799.2
353.15 K, 120000 kPa | 766.2 | 779.9 | 790.4 | 804
353.15 K, 130000 kPa | 770.8 | 784.5 | 795.1 | 808.7
353.15 K, 140000 kPa | 775.3 | 789.1 | 799.6 | 813.3
373.15 K, 1000 kPa | 658.4 | 672.6 | 683.7 | 697.9
373.15 K, 5000 kPa | 664.8 | 678.7 | 689.7 | 703.8
373.15 K, 10000 kPa | 671.8 | 685.7 | 696.5 | 710.5
373.15 K, 15000 kPa | 678.3 | 692.1 | 702.9 | 716.7
373.15 K, 20000 kPa | 684.3 | 697.9 | 708.6 | 722.4
373.15 K, 25000 kPa | 689.7 | 703.3 | 714 | 727.7
373.15 K, 30000 kPa | 694.9 | 708.4 | 719.1 | 732.7
373.15 K, 35000 kPa | 699.7 | 713.2 | 723.7 | 737.4
373.15 K, 40000 kPa | 704.2 | 717.7 | 728.3 | 741.9
373.15 K, 45000 kPa | 708.5 | 722.1 | 732.6 | 746.1
373.15 K, 50000 kPa | 712.5 | 726.1 | 736.6 | 750
373.15 K, 55000 kPa | 716.5 | 729.9 | 740.5 | 754
373.15 K, 60000 kPa | 720.2 | 733.7 | 744.2 | 757.7
373.15 K, 65000 kPa | 723.8 | 737.2 | 747.8 | 761.2
373.15 K, 70000 kPa | 727.2 | 740.6 | 751.2 | 764.6
373.15 K, 80000 kPa | 733.8 | 747.2 | 757.8 | 771.2
373.15 K, 90000 kPa | 739.9 | 753.4 | 763.9 | 777.3
373.15 K, 100000 kPa | 745.7 | 759.1 | 769.6 | 783
373.15 K, 110000 kPa | 751.1 | 764.6 | 775.1 | 788.5
373.15 K, 120000 kPa | 756.2 | 769.6 | 780.2 | 793.6
373.15 K, 130000 kPa | 761.2 | 774.7 | 785.1 | 798.6
373.15 K, 140000 kPa | 765.7 | 779.3 | 789.8 | 803.3
393.15 K, 1000 kPa | 639 | 653.5 | 664.6 | 679
393.15 K, 5000 kPa | 646.6 | 660.8 | 671.7 | 685.9
393.15 K, 10000 kPa | 654.8 | 668.8 | 679.6 | 693.5
393.15 K, 15000 kPa | 662.2 | 676 | 686.8 | 700.6
393.15 K, 20000 kPa | 668.9 | 682.6 | 693.2 | 706.9
393.15 K, 25000 kPa | 675 | 688.6 | 699.2 | 712.8
393.15 K, 30000 kPa | 680.6 | 694.2 | 704.7 | 718.3
393.15 K, 35000 kPa | 686 | 699.5 | 710 | 723.5
393.15 K, 40000 kPa | 690.9 | 704.4 | 714.8 | 728.3
393.15 K, 45000 kPa | 695.5 | 709 | 719.4 | 732.8
393.15 K, 50000 kPa | 699.9 | 713.4 | 723.8 | 737.2
393.15 K, 55000 kPa | 704.2 | 717.6 | 728 | 741.4
393.15 K, 60000 kPa | 708.2 | 721.6 | 732 | 745.3
393.15 K, 65000 kPa | 712 | 725.3 | 735.8 | 749.1
393.15 K, 70000 kPa | 715.7 | 729.1 | 739.5 | 752.8
393.15 K, 80000 kPa | 722.7 | 736.1 | 746.5 | 759.7
393.15 K, 90000 kPa | 729.2 | 742.6 | 753 | 766.2
393.15 K, 100000 kPa | 735.2 | 748.6 | 759 | 772.3
393.15 K, 110000 kPa | 741 | 754.4 | 764.8 | 778.1
393.15 K, 120000 kPa | 746.2 | 759.7 | 770.1 | 783.4
393.15 K, 130000 kPa | 751.4 | 764.8 | 775.3 | 788.6
393.15 K, 140000 kPa | 756.3 | 769.9 | 780.3 | 793.6

— the NIST ThermoML archive (doi:10.1016/j.fluid.2019.02.028)
